Values of other authors as cited in patent US20190021608A1, “CD206+ Macrophage-Specific Molecular Imaging Probe Compositions and Methods and the Noninvasive Quantification of Arterial Wall Macrophage Infiltration in Humans” (Navidea Biopharmaceuticals, Inc., priority 2017, published 2019).

Protein sequences, listed by entry. Tags and fused reporters are not part of them. Residues count along the entry.
UniProt P22897, 19-1456, species assumed: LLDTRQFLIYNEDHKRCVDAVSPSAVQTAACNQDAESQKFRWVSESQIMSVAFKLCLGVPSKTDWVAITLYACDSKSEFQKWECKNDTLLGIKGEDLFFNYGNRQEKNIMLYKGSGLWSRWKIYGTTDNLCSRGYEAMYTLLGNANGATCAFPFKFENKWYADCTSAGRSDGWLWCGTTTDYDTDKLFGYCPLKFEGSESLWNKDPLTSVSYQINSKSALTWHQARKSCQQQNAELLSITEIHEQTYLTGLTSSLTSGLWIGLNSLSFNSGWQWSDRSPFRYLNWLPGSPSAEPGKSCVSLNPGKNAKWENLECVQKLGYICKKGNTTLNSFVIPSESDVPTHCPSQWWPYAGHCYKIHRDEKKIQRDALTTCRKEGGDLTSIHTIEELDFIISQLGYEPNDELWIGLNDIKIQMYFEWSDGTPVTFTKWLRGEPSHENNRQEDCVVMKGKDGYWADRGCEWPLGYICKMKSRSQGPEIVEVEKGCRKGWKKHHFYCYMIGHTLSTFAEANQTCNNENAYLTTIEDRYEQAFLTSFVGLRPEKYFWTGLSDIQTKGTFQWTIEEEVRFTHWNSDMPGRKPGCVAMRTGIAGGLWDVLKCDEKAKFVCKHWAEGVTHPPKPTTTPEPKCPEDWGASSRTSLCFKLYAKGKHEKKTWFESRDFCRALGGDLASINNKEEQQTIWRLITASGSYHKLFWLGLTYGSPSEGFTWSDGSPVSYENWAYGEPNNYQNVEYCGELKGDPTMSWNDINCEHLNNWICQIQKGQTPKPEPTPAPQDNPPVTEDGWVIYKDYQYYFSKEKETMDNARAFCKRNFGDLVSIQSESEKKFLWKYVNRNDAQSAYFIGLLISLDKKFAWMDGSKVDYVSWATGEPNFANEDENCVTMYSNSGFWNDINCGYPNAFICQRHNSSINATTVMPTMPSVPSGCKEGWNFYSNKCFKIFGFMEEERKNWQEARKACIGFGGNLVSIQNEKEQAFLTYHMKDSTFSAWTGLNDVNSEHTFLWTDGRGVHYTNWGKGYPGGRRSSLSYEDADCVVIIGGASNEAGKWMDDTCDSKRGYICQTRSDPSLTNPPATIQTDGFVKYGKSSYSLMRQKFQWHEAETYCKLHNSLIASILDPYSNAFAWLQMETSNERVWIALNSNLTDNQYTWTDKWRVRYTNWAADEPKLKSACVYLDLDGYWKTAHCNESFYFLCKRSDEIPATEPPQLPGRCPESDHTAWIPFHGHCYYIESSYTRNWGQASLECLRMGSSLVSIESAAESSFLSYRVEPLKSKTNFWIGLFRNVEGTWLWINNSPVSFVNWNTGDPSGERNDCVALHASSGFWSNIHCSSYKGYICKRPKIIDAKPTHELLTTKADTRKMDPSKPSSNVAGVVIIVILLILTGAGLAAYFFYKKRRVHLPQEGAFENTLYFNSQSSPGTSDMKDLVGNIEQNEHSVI

Target: CD206 (Homo sapiens, UniProt P22897)
Details: read-out: dissociation constant for CD206

Substance: dextran 3-[(2-aminoethyl)thio]propyl 17-carboxy-10,13,16-tris(carboxymethyl)-8-oxo-4-thia-7,10,13,16-tetraazaheptadec-1-yl 3-[[2-[[1-imino-2-(D-mannopyranosylthio)ethyl]amino]ethyl]thio]propyl ether complexes [Tilmanocept]
- Kd: 30 pM
